By IC50 is commonly meant the concentration that inhibits the measured activity by half. A higher IC50 goes with weaker potency.

By UniProt entry, the sequences of proteins in these tests, tags left out. Where a name states a change or a piece, a line headed by the entry shows the natural chain unless it says otherwise.
UniProt P30550: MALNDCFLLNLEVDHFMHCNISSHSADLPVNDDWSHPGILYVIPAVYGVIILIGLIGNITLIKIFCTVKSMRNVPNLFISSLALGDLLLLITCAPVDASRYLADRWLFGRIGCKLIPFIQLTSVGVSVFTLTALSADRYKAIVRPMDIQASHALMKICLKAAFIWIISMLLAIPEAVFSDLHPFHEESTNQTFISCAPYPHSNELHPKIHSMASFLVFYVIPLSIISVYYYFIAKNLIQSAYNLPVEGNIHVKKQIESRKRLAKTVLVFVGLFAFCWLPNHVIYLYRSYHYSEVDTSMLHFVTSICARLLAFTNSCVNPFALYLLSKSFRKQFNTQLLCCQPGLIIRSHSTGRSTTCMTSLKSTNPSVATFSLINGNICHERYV

SMILES strings stand for the structures.

Twelve compounds from ChEMBL document CHEMBL3879899, “Gastrin releasing peptide compounds” (2011) can be followed below.

For the first experiment, the target named is Gastrin-releasing peptide receptor (Homo sapiens, UniProt P30550). Briefly: Displacement of [125I]-BBN from GRPR in human PC3 cells after 1 hr by compuGamma counting or microplate scintillation counting method. It counts as cell-based, PC-3.
Take `CSCC[C@H](NC(=O)[C@H](CC(C)C)NC(=O)[C@H](Cc1cnc[nH]1)NC(=O)CNC(=O)[C@@H](NC(=O)[C@H](C)NC(=O)[C@H](Cc1c[nH]c2ccccc12)NC(=O)[C@H](CCC(N)=O)NC(CN)C(=O)NC(=O)CN1CCN(C(=O)CNC(=O)[C@H](CSCNC(C)=O)NC(=O)[C@H](CO)NC(=O)CN(C)C)CC1)C(C)C)C(N)=O` (some centres not stated): the IC50 turned out to be 23 nM. Still for that read-out and setting: for `CSCC[C@H](NC(=O)[C@H](CC(C)C)NC(=O)[C@H](Cc1cnc[nH]1)NC(=O)CNC(=O)[C@@H](NC(=O)[C@H](C)NC(=O)[C@H](Cc1c[nH]c2ccccc12)NC(=O)[C@H](CCC(N)=O)N[C@@H](CCCNC(=N)N)C(=O)NC(=O)CN1CCN(C(=O)CNC(=O)[C@H](CSCNC(C)=O)NC(=O)[C@H](CO)NC(=O)CN(C)C)CC1)C(C)C)C(N)=O` the value was 26 nM. Same read-out and setting: next, `CSCC[C@H](NC(=O)[C@H](CC(C)C)NC(=O)[C@H](Cc1cnc[nH]1)NC(=O)CNC(=O)[C@@H](NC(=O)[C@H](C)NC(=O)[C@H](Cc1c[nH]c2ccccc12)NC(=O)[C@H](CCC(N)=O)NC(=O)[C@H](CC(N)=O)NC(=O)CNC(=O)[C@H](CC(C)C)NC(=O)[C@H](CCCCNC(=O)c1ccc(NC(=O)CNC(=O)CN2CCN(CC(=O)O)CCN(CC(=O)O)CCN(CC(=O)O)CC2)cc1)NC(=O)[C@H](CCC(N)=O)NC(=O)[C@@H]1CCCN1)C(C)C)C(N)=O`: 53 nM; `CSCC[C@H](NC(=O)[C@H](CC(C)C)NC(=O)[C@H](Cc1cnc[nH]1)NC(=O)CNC(=O)[C@@H](NC(=O)[C@H](C)NC(=O)[C@H](Cc1c[nH]c2ccccc12)NC(=O)[C@H](CCC(N)=O)NC(=O)[C@H](CCCCN)NC(=O)[C@H](CCCCN)NC(=O)CNC(=O)[C@H](CSCNC(C)=O)NC(=O)[C@H](CO)NC(=O)CN(C)C)C(C)C)C(N)=O`: 13 nM. On the same count and under the same terms, next, `CSCC[C@H](NC(=O)[C@H](CC(C)C)NC(=O)[C@H](CO)NC(=O)CNC(=O)[C@@H](NC(=O)[C@H](C)NC(=O)[C@H](Cc1c[nH]c2ccccc12)NC(=O)[C@H](CC(C)C)NC(=O)c1ccc(NC(=O)CNC(=O)CN2CCN(CC(=O)O)CCN(CC(=O)O)CCN(CC(=O)O)CC2)cc1)C(C)C)C(N)=O`: 240 nM; `CSCC[C@H](NC(=O)[C@H](CC(C)C)NC(=O)[C@H](Cc1cnc[nH]1)NC(=O)CNC(=O)[C@@H](NC(=O)[C@H](C)NC(=O)[C@H](Cc1c[nH]c2ccccc12)NC(=O)[C@H](CCC(N)=O)NC(CN)C(=O)NC(=O)COCCOCCNC(=O)CNC(=O)[C@H](CSCNC(C)=O)NC(=O)[C@H](CO)NC(=O)CN(C)C)C(C)C)C(N)=O` (some centres not stated): 17 nM. `CSCC[C@H](NC(=O)[C@H](CC(C)C)NC(=O)[C@H](Cc1cnc[nH]1)NC(=O)CNC(=O)[C@@H](NC(=O)[C@H](C)NC(=O)[C@H](Cc1c[nH]c2ccccc12)NC(=O)[C@H](CCC(N)=O)NC(=O)[C@H](CO)NC(=O)[C@H](CCCCN)NC(=O)CNC(=O)[C@H](CSCNC(C)=O)NC(=O)[C@H](CO)NC(=O)CN(C)C)C(C)C)C(N)=O` gave an IC50 of 7.5 nM. In turn, `CSCC[C@H](NC(=O)[C@H](CC(C)C)NC(=O)[C@H](Cc1cnc[nH]1)NC(=O)CNC(=O)[C@@H](NC(=O)[C@H](C)NC(=O)[C@H](Cc1c[nH]c2ccccc12)NC(=O)[C@H](CCC(N)=O)N[C@@H](CCCCN)C(=O)NC(=O)CN1CCN(CCNC(=O)CNC(=O)[C@H](CSCNC(C)=O)NC(=O)[C@H](CO)NC(=O)CN(C)C)CC1)C(C)C)C(N)=O` came in with an IC50 of 34 nM. Same read-out and setting: next, `CSCC[C@H](NC(=O)[C@H](CC(C)C)NC(=O)[C@H](Cc1cnc[nH]1)NC(=O)CNC(=O)[C@@H](NC(=O)[C@H](C)NC(=O)[C@H](Cc1c[nH]c2ccccc12)NC(=O)[C@H](CCC(N)=O)N[C@@H](CO)C(=O)NC(=O)CN1CCN(C(=O)CNC(=O)[C@H](CSCNC(C)=O)NC(=O)[C@H](CO)NC(=O)CN(C)C)CC1)C(C)C)C(N)=O`: 38 nM. Still for that read-out and setting: next, `CSCC[C@H](NC(=O)[C@H](CC(C)C)NC(=O)[C@H](Cc1cnc[nH]1)NC(=O)CNC(=O)[C@@H](NC(=O)[C@H](C)NC(=O)[C@H](Cc1c[nH]c2ccccc12)NC(=O)[C@H](CCC(N)=O)NC(=O)CNC(=O)CNC(=O)[C@H](CSCNC(C)=O)NC(=O)[C@H](CO)NC(=O)CN(C)C)C(C)C)C(N)=O`: 25 nM.

Another experiment concerns the target T1, Neuromedin-B receptor (Rattus norvegicus, UniProt P24053).
T1 sequence (P24053 whole entry): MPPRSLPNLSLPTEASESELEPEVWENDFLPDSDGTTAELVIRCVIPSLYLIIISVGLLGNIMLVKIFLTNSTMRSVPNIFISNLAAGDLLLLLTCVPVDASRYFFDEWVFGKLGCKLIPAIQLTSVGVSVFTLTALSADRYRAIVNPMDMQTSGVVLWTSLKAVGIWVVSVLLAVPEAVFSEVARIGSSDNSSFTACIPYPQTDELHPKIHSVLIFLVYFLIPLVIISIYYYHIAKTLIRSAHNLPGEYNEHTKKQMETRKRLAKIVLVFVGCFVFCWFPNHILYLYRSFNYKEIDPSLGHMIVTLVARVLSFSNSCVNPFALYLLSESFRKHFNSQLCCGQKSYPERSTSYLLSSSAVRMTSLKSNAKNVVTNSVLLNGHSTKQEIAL
As to the kind of experiment: Displacement of [125I]-NMB from NMB receptor in rat C6 cells. It counts as cell-based.
Regarding `CSCC[C@H](NC(=O)[C@H](CC(C)C)NC(=O)[C@H](Cc1cnc[nH]1)NC(=O)CNC(=O)[C@@H](NC(=O)[C@H](C)NC(=O)[C@H](Cc1c[nH]c2ccccc12)NC(=O)[C@H](CCC(N)=O)NC(=O)[C@H](CCCCN)NC(=O)[C@H](CO)NC(=O)CNC(=O)[C@H](CSCNC(C)=O)NC(=O)[C@H](CO)NC(=O)CN(C)C)C(C)C)C(N)=O`, the IC50 was 2.2 nM.

For `CSCC[C@H](NC(=O)[C@H](Cc1ccccc1)NC(=O)[C@H](Cc1cnc[nH]1)NC(=O)CNC(=O)[C@@H](NC(=O)[C@H](C)NC(=O)[C@H](Cc1c[nH]c2ccccc12)NC(=O)[C@H](CC(C)C)NC(=O)[C@H](CC(N)=O)NC(=O)CNC(=O)[C@@H](N)Cc1ccc(O)cc1)[C@@H](C)O)C(N)=O`, the IC50 amounted to 0.16 nM.
